The record followed here is US20140100172A1.

Amino acid sequences for entries named in this document (tags omitted).
UniProt P61073, whole entry: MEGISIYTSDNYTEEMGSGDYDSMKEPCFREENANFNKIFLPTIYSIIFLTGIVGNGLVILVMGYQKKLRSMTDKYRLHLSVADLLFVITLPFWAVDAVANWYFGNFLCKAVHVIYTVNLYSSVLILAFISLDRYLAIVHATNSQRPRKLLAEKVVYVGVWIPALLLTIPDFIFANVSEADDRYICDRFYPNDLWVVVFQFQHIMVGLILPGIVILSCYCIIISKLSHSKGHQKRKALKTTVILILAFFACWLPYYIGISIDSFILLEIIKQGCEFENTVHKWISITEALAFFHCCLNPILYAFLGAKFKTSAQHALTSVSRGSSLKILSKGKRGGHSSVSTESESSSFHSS

The target in this test is human chemokine receptor type 4 (CXCR4) (human) (UniProt P61073). Briefly: competition with 125I-CPCR4 tracer on CXCR4-expressing cells.
The term IC50 denotes the point on the concentration scale where inhibition reaches its midpoint. Higher therefore signals weaker potency in that assay. Regarding “cyc[D-Tyr-Orn(FP)-Arg-Nal-Gly] (peptide)”, the IC50 stood at 35 nM.

Regarding “cyc[D-Tyr-Orn(Ahx3)-Arg-Nal-Gly] (peptide)”, the IC50 was 227 nM.

Substance “cyc[D-Tyr-Orn(Ac)-Arg-Nal-Gly] (peptide)” displayed an IC50 of 29 nM. Take “Dap(FB)-8k, cyc[D-Tyr-Arg-Nal-Dap(FB)] (peptide)”: the IC50 came out at 350 nM. For the substance “cyc[D-Tyr-Orn(Ahx2)-Arg-Nal-Gly] (peptide)”, the IC50 amounted to 947 nM. Against the preceding substance, the IC50 is about 2.7-fold higher. In turn, “cyc[D-Tyr-Orn(Am)-Arg-Nal-Gly] (peptide)” registered an IC50 of 35 nM. As for “cyc[D-Tyr-Orn(Bz)-Arg-Nal-Gly] (peptide)”, the figure is 155 nM; as for “cyc[D-Tyr-(Me)D-Orn(FB)-Arg-Nal-Gly] (peptide)”, 8.7 nM. For cyc[Nal-Gly-D-Tyr-Cit-Arg] (peptide), the IC50 came out at 35 nM. As for “cyc[D-Tyr-Orn(Me, FB)-Arg-Nal-Gly] (peptide)”, the figure is 78 nM; as for “cyc[D-Tyr-Orn(Me)-Arg-Nal-Gly] (peptide)”, 105 nM. “Dap(FP)-8k, cyc[D-Tyr-Arg-Nal-Dap(FP)] (peptide)” returned an IC50 of 140 nM.
